This note sets out measurements from ChEMBL document CHEMBL4382201 (J Med Chem, 2018).

Values after ≈ are worked out from the molar mass of the structure shown. Some results are limits rather than exact numbers.

Usually GI50 stands for the concentration that inhibits growth by half. Usually solubility stands for how much of the substance goes into solution per volume. A high value points to a readily soluble substance. The IC50 is the midpoint of a concentration-inhibition curve.

A short description of series [1]: Drug level in DMSO-d6/PBS buffer treated with 4-(bis(2-chloroethyl)amino)phenylboronic acid assessed as compound formation after 10 days in presence of GSH by IT-TOF mass analysis. The following applies: 240 h.
Series [2] relates to K562. The series can be described thus: Growth inhibition of human K562 cells after 48 hrs by SRB assay. Type of series: functional. The gist of the method:
(§1)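 NCI-60 five-dose screen at 100 µM, 10 µM, 1 µM, 100 nM and 10 nM. Incubation 48 h at 37 °C, 5% CO2, 100% humidity. Growth was expressed relative to the no-drug control and to the time-zero cell number, and GI50 was derived from these values.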

The test system of series [3] is Malme-3M. The series can be described thus: Growth inhibition of human MALME-3M cells after 48 hrs by SRB assay. Type of series: functional. The gist of the method: as §1
(In general: The SRB assay estimates cell density from bound dye.)

In series [4] the test system is MOLT-4. The series can be described thus: Growth inhibition of human MOLT4 cells after 48 hrs by SRB assay. In kind it is functional. The gist of the method:
as §1

Series [5] relates to CCRF-CEM. The series is described as follows: Growth inhibition of human CCRF-CEM cells after 48 hrs by SRB assay. Type of series: functional. The gist of the method: as §1
A short description of series [6]: Chemical stability of the compound in 100 mM pH 7.4 PBS buffer assessed as compound remaining at 10 mM at room temperature after 2 days. The settings on record: pH 7.4, 48 h, 10000 µM.
A short description of series [7]: Solubility of the compound in 50% DMSO/PBS buffer at 10 mM pH 6 after 3 to 10 days by NMR analysis. The settings on record: pH 6, 10000 µM.
In series [8] the test system is SK-OV-3. The series is described as follows: Growth inhibition of human SKOV3 cells after 48 hrs by SRB assay. In kind it is functional. The gist of the method: as §1
Series [9] deals with MCF7. The series is described as follows: Growth inhibition of human MCF7 cells after 48 hrs by SRB assay. Type of series: functional. The gist of the method:
as §1

Series [10] in a line: Cytotoxicity against human CLL cells assessed as reduction in cell viability after 24 hrs.
Series [11] in a line: Solubility of the compound in PBS buffer at 10 mM at pH 7.4 by UV-based analysis. In kind it is physicochemical. The following applies: pH 7.4, 10000 µM. The gist of the method:
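Compound (10 mM DMSO stock) was diluted into pH 7.4 buffer (ethanolamine/KH2PO4/potassium acetate/KCl) to a final 5% DMSO. After sonication and 18 h agitation the mixture was filtered and scanned by UV at 230-800 nm. Solubility was calculated from calibration plots made in 20% acetonitrile buffer, in quadruplicate, with solubility standards on each plate.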

Series [12] relates to RPMI-8226. The series can be described thus: Growth inhibition of human RPMI8226 cells after 48 hrs by SRB assay. Type of series: functional. The gist of the method:
as §1

Series [13] has as its system MDA-MB-468. The series can be described thus: Growth inhibition of human MDA-MB-468 cells after 48 hrs by […].
Series [14] has as its system HOP-92. The series is described as follows: Growth inhibition of human HOP92 cells after 48 hrs by SRB assay. In kind it is functional. The gist of the method: as §1
Series [15] concerns SR. The series can be described thus: Growth inhibition of human SR cells after 48 hrs by SRB assay. Type of series: functional. The gist of the method:
as §1

The nature of series [16]: Chemical stability of the compound in 100 mM pH 6 PBS buffer assessed as compound remaining at 10 mM at room temperature after 2 days. The following applies: pH 6, 48 h, 10000 µM.
Series [17] relates to HT-29. The series can be described thus: Growth inhibition of human HT-29 cells after 48 hrs by SRB assay. Type of series: functional. The gist of the method:
as §1

Series [18] concerns MDA-MB-468. The series is described as follows: Growth inhibition of human MDA-MB-468 cells after 48 hrs by SRB assay. In kind it is functional. The gist of the method: as §1
Series [19] can be described thus: Chemical stability of the compound in 50% DMSO/PBS buffer assessed as compound remaining at pH 6 in presence of GSH after 48 hrs. The following applies: pH 6, 48 h.
In series [20] the test system is IGROV-1. The series can be described thus: Growth inhibition of human IGROV1 cells after 48 hrs by SRB assay. In kind it is functional. The gist of the method: as §1
Series [21] deals with SNB-75. The series is described as follows: Growth inhibition of human SNB75 cells after 48 hrs by SRB assay. Type of series: functional. The gist of the method:
as §1

Series [22] can be described thus: Chemical stability of the compound in 100 mM pH 7 PBS buffer assessed as compound remaining at 10 mM at room temperature after 4 days. The settings on record: pH 7, 96 h, 10000 µM.
Series [23] is described as follows: Chemical stability of the compound in 90% DMSO/PBS buffer assessed as compound remaining at pH 6 in presence of GSH.
A short description of series [24]: Chemical stability of the compound in 100 mM pH 6 PBS buffer assessed as compound remaining at 10 mM at room temperature after 4 days. The settings on record: pH 6, 96 h, 10000 µM.

As for `ClCCN(CCCl)c1ccccc1`, the Drug uptake result in [1] is “Active”.
`OB(O)c1ccc(N(CCCl)CCCl)cc1`: the GI50 in series [2] was 15.8 µM; in [3], 19.7 µM; in series [4], 2.9 µM; in series [5], 3.27 µM; in series [8] it was 3.81 µM; in series [9] it was 1.89 µM. Further, the GI50 in [12] is 8.59 µM; in series [14], 10.5 µM; in [15], 0.48 µM; in series [17], 11.9 µM; in [18] it was 0.51 µM; in [20], 18.1 µM. Further, in series [21], the 50% growth inhibitory concentration (GI50) was determined as 3.21 µM. Further, the Stability in series [6] is more than 99%; in [16], more than 99%; in series [19] it was 96%; in series [22] it was 99%; in [23], “Stable”; in series [24] it was 99%. In addition, the solubility entry was “Insoluble” in series [7] and 328 µM (≈ 85.9 µg/mL) in series [11]. In addition, the IC50 in [10] is 5 to 6 µM; in series [13], 16.7 µM.
